Article PMC9865085, “Expression and Characterisation of the First Snail-Derived UDP-Gal: Glycoprotein-N-acetylgalactosamine β-1,3-Galactosyltransferase (T-Synthase) from Biomphalaria glabrata” (Molecules, 2023)

Target: T1, T-synthase (UDP-Gal: glycoprotein-N-acetylgalactosamine β-1,3-galactosyltransferase) from Biomphalaria glabrata (Biomphalaria glabrata, UniProt A0A2C9JXL4)
T1 construct: full-length 388 aa type II transmembrane protein, C-terminal His-tag, codon-optimised synthetic gene, expressed in Sf9 cells; lysate or captured on anti-His magnetic beads
T1 sequence (A0A2C9JXL4 1-388): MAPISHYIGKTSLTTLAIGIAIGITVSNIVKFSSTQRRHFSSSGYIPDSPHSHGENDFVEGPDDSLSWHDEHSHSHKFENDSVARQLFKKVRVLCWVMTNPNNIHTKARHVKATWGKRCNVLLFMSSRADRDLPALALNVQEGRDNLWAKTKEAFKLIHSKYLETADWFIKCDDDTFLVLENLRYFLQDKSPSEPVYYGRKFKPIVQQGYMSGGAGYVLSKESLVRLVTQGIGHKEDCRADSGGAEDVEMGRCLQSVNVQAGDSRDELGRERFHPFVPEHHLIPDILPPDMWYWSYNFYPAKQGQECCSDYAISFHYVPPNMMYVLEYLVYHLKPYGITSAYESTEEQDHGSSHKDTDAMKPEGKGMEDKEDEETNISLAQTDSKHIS
Experiment: galactosyl transfer to pNP-α-GalNAc, HPLC
Type: biochemical
Settings: 5 nmol added to 20 μL assay; 200 μM UDP-Gal, 1 mM pNP-α-GalNAc, 20 mM MnCl2, 2 mM ATP, 50 mM MES pH 6.5, 37 °C, 2 h; bead-bound enzyme or lysate not stated for this test

## O=c1ccn([C@@H]2O[C@H](COP(=O)(O)OP(=O)(O)O)[C@@H](O)[C@H]2O)c(=O)[nH]1 [UDP]
  % inhibition at 5 nmol: ~ 50%
